Values of other authors as cited in patent US20260167740A1, “MEANS AND METHODS FOR TREATING CASTRATION-RESISTANT PROSTATE CANCER” (Merus N.V., priority 2022, published 2026).

System: castration-resistant prostate cancer
Conditions: CRPC / hormone refractory prostate cancer; phase II trials (Ziada et al. 2004; Molife et al. 2014); cited from earlier work

In the case of trastuzumab: ERBB2-targeting agent, the “antitumor activity in the clinical setting” value is listed as “failure to demonstrate antitumor activity”.
